{"sequences": {"note": "By UniProt entry, the sequences of proteins in these tests, tags left out.", "UniProt P35462, whole entry": "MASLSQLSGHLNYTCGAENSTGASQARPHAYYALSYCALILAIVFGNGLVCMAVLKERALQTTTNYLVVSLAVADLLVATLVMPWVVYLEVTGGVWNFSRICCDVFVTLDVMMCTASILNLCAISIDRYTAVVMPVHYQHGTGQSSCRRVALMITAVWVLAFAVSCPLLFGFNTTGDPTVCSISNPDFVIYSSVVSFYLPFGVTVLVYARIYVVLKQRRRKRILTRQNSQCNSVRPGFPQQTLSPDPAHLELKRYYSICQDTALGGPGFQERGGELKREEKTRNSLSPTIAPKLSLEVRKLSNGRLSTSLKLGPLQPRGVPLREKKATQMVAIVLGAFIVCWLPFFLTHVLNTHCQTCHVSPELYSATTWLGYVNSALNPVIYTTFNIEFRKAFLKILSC"}, "source": "PubChem BioAssay AID652048", "about": "(National Center for Advancing Translational Sciences (NCATS), 2013)", "note": "Only a part is listed here, and it is no random draw. Some structures show a salt or complex split into parts, the way the source records it. The source made the active and inactive calls. No stated cut-off is given here; in the data, active means max activation above about 30%; inactive means the rest.", "data": [{"molecular_target": "D(3) dopamine receptor (Homo sapiens) (UniProt P35462)", "test": "qHTS of D3 Dopamine Receptor Agonist: qHTS; further: 0% is about no effect", "details": "D3R DiscoveRx beta-arrestin cells, luminescence, 90 min; active compounds read high", "text": "D3 DARs represent a very important target for the treatment of several neuropsychiatric disorders. Indeed, one of the most promising therapeutic applications for the D3 DAR is in the area of addiction and related disorders. […] These findings have been observed with a number of addictive substances including cocaine, amphetamine, nicotine, and alcohol. […] Antagonism of the D3 DAR may also be therapeutic in the treatment of schizophrenia or psychosis. […] Since the D3 DAR is expressed in areas of the CNS associated with the control of mood and emotion, it has been hypothesized that selective antagonism of the D3 DAR may be effective in treating psychosis without inducing the motor side effects typically seen with D2 DAR antagonists.\nThis part of the project aims to discover novel agonist.\nNIH Chemical Genomics Center [NCGC]\nNIH Molecular Libraries Probe Centers Network [MLPCN]\nAssay Submitter (PI): David Sibley, NINDS\nFreshly passaged cells are plated in 1536 well white, solid bottom plates at a density of 1500 cells/well in 3microl of complete media. After an overnight incubation at 37 degrees C in 5% CO2, cells are loaded with 23nl of test compound from the compound library (as well as dopamine controls) using a 1536 pintool and incubated at 37 degrees C for 90 minutes. Two microliters of DiscoveRx reagent is then added to all cells, and they are incubated for an additional 30 - 60 minutes at room temperature. Following incubation, luminescence is measured on a ViewLux CCD-based luminometer reader using a 20 sec exposure time.", "values": [{"smiles": "Cc1cc(C)cc(N(C(=O)c2ccccc2)C2CCN(C(=O)OC(C)(C)C)CC2)c1", "max activation": "inactive: 1.15%"}, {"smiles": "O=C(NCC1(N2CCCCC2)CCCCC1)c1ccc(Cl)nc1", "max activation": "inactive: -15%"}, {"smiles": "O=c1[nH]c2ccccc2n1C1CCN(C(c2ccccc2OC(F)(F)F)c2nnnn2C2CCCCC2)CC1", "note": "(centres undefined)", "max activation": "inactive: 2.98%"}, {"smiles": "O=C(NCC1(N2CCOCC2)CCCCC1)c1cc2ccccc2o1", "max activation": "inactive: 1.44%"}, {"smiles": "COc1ccc(Cl)cc1C(=O)NCC1(N2CCOCC2)CCCCC1", "max activation": "inactive: -7.36%"}, {"smiles": "O=C1C(O)=C([N+](=O)[O-])C(=O)C(O)=C1[N+](=O)[O-]", "max activation": "inactive: -16.2%"}, {"smiles": "O=C(NCC1(N2CCCCC2)CCCCC1)c1ccc(Cl)s1", "max activation": "inactive: -16.2%"}, {"smiles": "N#CC1(Nc2ccccc2)CCN(Cc2ccccc2)CC1", "max activation": "inactive: -2.18%"}, {"smiles": "O=C(OC1CN2CCC1CC2)C1c2ccccc2Oc2ccccc21", "note": "(centres undefined)", "max activation": "inactive: 1.44%"}, {"smiles": "O=c1[nH]c2ccccc2n1C1CCN(C(c2cc3ccccc3o2)c2nnnn2C2CCCCC2)CC1", "note": "(centres undefined)", "max activation": "inactive: 6.44%"}, {"smiles": "CCCCn1nnnc1C(c1ccc(OC)cc1)N1CCC(n2c(=O)[nH]c3ccccc32)CC1", "note": "(centres undefined)", "max activation": "inactive: -16.8%"}, {"smiles": "CCOC(=O)N1CCC(Nc2ccc(OC)cc2)CC1", "max activation": "inactive: 0.04%"}, {"smiles": "CC(C)(C)OC(=O)N1CCC(N(C(=O)c2ccccc2)c2ccc(F)cc2)CC1", "max activation": "inactive: 2.67%"}, {"smiles": "COc1ccc(C(=O)NCC2(N3CCCCC3)CCCCC2)c(OC)c1OC", "max activation": "inactive: -2.49%"}, {"smiles": "CCC(c1nnnn1C1CCCC1)N1CCC(n2c(=O)[nH]c3ccccc32)CC1", "note": "(centres undefined)", "max activation": "inactive: -6.57%"}, {"smiles": "COc1ccc(C(=O)NCC2(N3CCCCC3)CCCCC2)cc1", "max activation": "inactive: -14.2%"}, {"smiles": "O=C(NCC1(N2CCCCC2)CCCCC1)c1cccs1", "max activation": "inactive: -12.1%"}, {"smiles": "CCCCn1nnnc1C(CC)N1CCC(n2c(=O)[nH]c3ccccc32)CC1", "note": "(centres undefined)", "max activation": "inactive: 2.29%"}, {"smiles": "CCCCn1nnnc1C(c1cccs1)N1CCC(n2c(=O)[nH]c3ccccc32)CC1", "note": "(centres undefined)", "max activation": "inactive: -6.82%"}, {"smiles": "O=C(NCC1(N2CCCCC2)CCCCC1)c1ccc(=O)[nH]c1", "max activation": "inactive: -1.85%"}, {"smiles": "Cc1cccc(NC2(C#N)CCN(Cc3ccccc3)CC2)c1", "max activation": "inactive: -10.5%"}, {"smiles": "CSc1ccccc1C(=O)NCC1(N2CCCCC2)CCCCC1", "max activation": "inactive: 2.87%"}, {"smiles": "O=c1[nH]c2ccccc2n1C1CCN(C(c2ccccc2)c2nnnn2C2CCCCC2)CC1", "note": "(centres undefined)", "max activation": "inactive: 2.49%"}, {"smiles": "CCOC(=O)N1CCC(Nc2cccc(C)c2)CC1", "max activation": "inactive: 6.26%"}, {"smiles": "COc1cc(C(=O)NCC2(N(C)C)CCCCC2)ccc1OC(F)F", "max activation": "inactive: -12.2%"}, {"smiles": "O=c1[nH]c2ccccc2n1C1CCN(C(c2cccc3ccccc23)c2nnnn2C2CCCC2)CC1", "note": "(centres undefined)", "max activation": "inactive: -8.34%"}, {"smiles": "O=C1CCN(Cc2ccccc2)CC1", "max activation": "inactive: -32.4%"}, {"smiles": "O=C(NCC1(N2CCOCC2)CCCCC1)c1ccc(Cl)cc1", "max activation": "inactive: -18.8%"}, {"smiles": "CC(C)(C)n1nnnc1C(c1ccccc1)N1CCC(n2c(=O)[nH]c3ccccc32)CC1", "note": "(centres undefined)", "max activation": "inactive: -7.1%"}, {"smiles": "CCOc1ccc(C)cc1CN(CCCl)CCCl", "max activation": "inactive: 0.447%"}, {"smiles": "COc1ccccc1C(=O)NCC1(N2CCOCC2)CCCCC1", "max activation": "inactive: -4.63%"}, {"smiles": "COc1ccc(NC2CCN(CCc3ccccc3)CC2)c(OC)c1", "max activation": "inactive: -53.3%"}, {"smiles": "CCOC(=O)N1CCC(Nc2ccc(F)cc2)CC1", "max activation": "inactive: 7.43%"}, {"smiles": "CCCCn1nnnc1C(c1cc2ccccc2o1)N1CCC(n2c(=O)[nH]c3ccccc32)CC1", "note": "(centres undefined)", "max activation": "inactive: 3.44%"}, {"smiles": "O=P1(N(CCCl)CCCl)SCCCS1", "max activation": "inactive: 8.78%"}, {"smiles": "CCCCOc1ccc(C(=O)NCC2(N3CCOCC3)CCCCC2)cc1", "max activation": "inactive: -3.06%"}, {"smiles": "O=C(NCC1(N2CCCCC2)CCCCC1)c1ccc(F)cc1", "max activation": "inactive: -11.3%"}, {"smiles": "O=[N+]([O-])c1cc([N+](=O)[O-])c(NCC2CCS(=O)(=O)C2)c([N+](=O)[O-])c1", "note": "(centres undefined)", "max activation": "inactive: -11.6%"}, {"smiles": "CCCOc1cccc(C(=O)NCC2(N3CCOCC3)CCCCC2)c1", "max activation": "inactive: 3.04%"}, {"smiles": "O=C(NCC1(N2CCCCC2)CCCCC1)c1cccc(C(F)(F)F)c1", "max activation": "inactive: -17.2%"}, {"smiles": "COc1cc(C(=O)NCC2(N3CCCCC3)CCCCC2)ccc1OC(F)F", "max activation": "inactive: -18.4%"}, {"smiles": "O=C(NCC1(N2CCOCC2)CCCCC1)c1cc(=O)[nH]c2ccccc12", "max activation": "inactive: 0.598%"}, {"smiles": "CN1CCN(CCOC(=O)C(O)(c2ccccc2)c2ccccc2)CC1", "max activation": "inactive: -8.51%"}, {"smiles": "CC(C)c1ccc(C(=O)NCC2(N3CCOCC3)CCCCC2)cc1", "max activation": "inactive: -17.9%"}, {"smiles": "COc1ccc(NC2CCN(C(=O)OC(C)(C)C)CC2)cc1", "max activation": "inactive: 4.29%"}, {"smiles": "CCCCn1nnnc1C(c1cccc2ccccc12)N1CCC(n2c(=O)[nH]c3ccccc32)CC1", "note": "(centres undefined)", "max activation": "inactive: -9.2%"}, {"smiles": "O=C(NCC1(N2CCCCC2)CCCCC1)c1ccc(OC(F)F)cc1", "max activation": "inactive: -3.07%"}, {"smiles": "CC(C)(C)n1nnnc1C(c1ccccc1OC(F)(F)F)N1CCC(n2c(=O)[nH]c3ccccc32)CC1", "note": "(centres undefined)", "max activation": "inactive: 7.41%"}, {"smiles": "O=c1[nH]c2ccccc2n1C1CCN(C(c2ccccc2OC(F)(F)F)c2nnnn2C2CCCC2)CC1", "note": "(centres undefined)", "max activation": "inactive: 9.78%"}, {"smiles": "N#CC1(Nc2ccccc2)CCN(CCc2ccccc2)CC1", "max activation": "inactive: 2.33%"}, {"smiles": "CCN1CCC(Nc2ccc(Cl)cc2)CC1", "max activation": "inactive: 0.0073%"}, {"smiles": "O=C(NCC1(N2CCCCC2)CCCCC1)c1cccc([N+](=O)[O-])c1", "max activation": "inactive: -16%"}, {"smiles": "CCOc1ccc(C(=O)NCC2(N3CCOCC3)CCCCC2)cc1", "max activation": "inactive: -1.79%"}, {"smiles": "CSc1ccc(C(=O)NCC2(N3CCOCC3)CCCCC2)cc1", "max activation": "inactive: -16.1%"}, {"smiles": "O=C(OC1CN2CCC1CC2)c1ccc([N+](=O)[O-])cc1", "note": "(centres undefined)", "max activation": "inactive: 7.89%"}, {"smiles": "CN1CCC(Nc2cccc(F)c2)CC1", "max activation": "inactive: -9.52%"}, {"smiles": "COc1ccc2c(c1O)-c1c(O)c(OC)cc3c1[C@H](C2)[N+](C)(C)CC3.O=[N+]([O-])c1cc([N+](=O)[O-])c([O-])c([N+](=O)[O-])c1[O-]", "max activation": "inactive: -7.66%"}, {"smiles": "O=C(NCC1(N2CCCCC2)CCCCC1)c1cncc(Br)c1", "max activation": "inactive: -25.5%"}, {"smiles": "O=[N+]([O-])c1cc([N+](=O)[O-])c(Nc2ccc(Cl)cc2)c([N+](=O)[O-])c1", "max activation": "inactive: -6.41%"}]}]}
